Data: patent US11642336B2, “5-HT2A agonists for use in treatment of depression” (priority 2019, dated 2023)
Counter-ions that a name gives are not always drawn.

Amino acid sequences for entries named in this document (tags omitted). A change or cut given only in a name is not applied to a line headed by its entry.
UniProt P28335: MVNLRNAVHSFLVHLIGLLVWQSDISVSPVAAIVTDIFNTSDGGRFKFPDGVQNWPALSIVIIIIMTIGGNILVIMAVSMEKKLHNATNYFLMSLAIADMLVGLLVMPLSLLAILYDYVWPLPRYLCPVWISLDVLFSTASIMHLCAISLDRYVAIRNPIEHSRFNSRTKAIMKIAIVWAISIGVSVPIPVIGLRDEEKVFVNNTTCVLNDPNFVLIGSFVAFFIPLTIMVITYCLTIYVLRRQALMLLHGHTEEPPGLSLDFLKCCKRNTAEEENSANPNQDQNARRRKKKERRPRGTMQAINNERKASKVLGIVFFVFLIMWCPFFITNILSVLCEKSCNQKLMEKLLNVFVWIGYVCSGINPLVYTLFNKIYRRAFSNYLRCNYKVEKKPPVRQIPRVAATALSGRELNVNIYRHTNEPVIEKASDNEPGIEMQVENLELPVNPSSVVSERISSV
UniProt P41595, whole entry, looked up, species assumed: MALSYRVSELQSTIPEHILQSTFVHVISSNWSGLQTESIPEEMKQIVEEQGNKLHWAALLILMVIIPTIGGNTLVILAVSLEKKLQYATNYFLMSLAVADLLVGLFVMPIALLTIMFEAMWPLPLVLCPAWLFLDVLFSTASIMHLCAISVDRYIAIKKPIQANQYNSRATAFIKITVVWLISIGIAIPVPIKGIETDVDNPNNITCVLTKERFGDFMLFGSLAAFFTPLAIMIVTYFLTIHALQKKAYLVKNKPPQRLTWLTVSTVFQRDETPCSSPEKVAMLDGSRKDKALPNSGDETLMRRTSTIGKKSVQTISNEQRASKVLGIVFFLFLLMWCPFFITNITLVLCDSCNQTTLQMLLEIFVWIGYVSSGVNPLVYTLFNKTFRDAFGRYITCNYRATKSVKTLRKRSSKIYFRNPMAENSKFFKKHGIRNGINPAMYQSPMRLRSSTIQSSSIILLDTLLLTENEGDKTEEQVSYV

What was measured:
5-HT2C = 5-HT2C (Homo sapiens (Human), UniProt P28335); test: Ca2+/Fluo-4 assay, stable h5-HT2C-HEK293 cell line; type: cell-based; conditions: % of the Rmax of 5-HT;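 note: Agonist-induced intracellular Ca2+ rise read by Fluo-4 fluorescence in HEK293 cells stably expressing the human 5-HT2C receptor, each compound run in duplicate on three or more occasions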
human 5-HT2A = human 5-HT2A (Homo sapiens (Human), UniProt P28223); type: cell-based; conditions: % of the Rmax of 5-HT
5-HT2B = 5-HT2B (Homo sapiens (Human), UniProt P41595); test: radioligand competition binding assay (Psychiatric Drug Screening Program)

SMILES | 5-HT2C Rmax ± S.E.M (5-HT2C) | 5-HT2A Rmax ± S.E.M (human 5-HT2A) | Ki (5-HT2B)
COc1cc([C@H]2CCCNC2)c(OC)cc1Cl [Compound 9, (R)-3-(4-Chloro-2,5-dimethoxyphenyl)piperidine] | 26 ± 2% | 61 ± 2% | 
COc1cc([C@@H]2CCCNC2)c(OC)cc1Cl [Compound 10, (S)-3-(4-Chloro-2,5-dimethoxyphenyl)piperidine] |  | 32 ± 6% | 
COc1cc([C@H]2CCCNC2)c(OC)cc1Br [Compound 11, (R)-3-(4-bromo-2,5-dimethoxyphenyl)piperidine] | 34 ± 4% | 67 ± 6% | 
COc1cc([C@@H]2CCCNC2)c(OC)cc1Br [Compound 12, (S)-3-(4-bromo-2,5-dimethoxyphenyl)piperidine] |  | 37 ± 4% | 
COc1cc([C@H]2CCCNC2)c(OC)cc1I [Compound 13, (R)-3-(4-Iodo-2,5-dimethoxyphenyl)piperidine] |  | 58 ± 4% | 
COc1cc([C@@H]2CCCNC2)c(OC)cc1I [Compound 14, (S)-3-(4-Iodo-2,5-dimethoxyphenyl)piperidine] |  | 53 ± 3% | 
COc1cc([C@H]2CCCNC2)c(OC)cc1C#N [Compound 15, (R)-2,5-dimethoxy-4-(piperidin-3-yl)benzonitrile] |  | 41 ± 6% | 
COc1cc([C@@H]2CCCNC2)c(OC)cc1C#N [Compound 16, (S)-2,5-dimethoxy-4-(piperidin-3-yl)benzonitrile] |  | 25 ± 4% | 
COc1cc([C@H]2CCCNC2)c(OC)cc1SC.Cl [Compound 17, (R)-3-(2,5-dimethoxy-4-(methylthio)phenyl)piperidine hydrochloride] | 38 ± 5% | 85 ± 7% | 
COc1cc([C@@H]2CCCNC2)c(OC)cc1SC.Cl [Compound 18, (S)-3-(2,5-dimethoxy-4-(methylthio)phenyl)piperidine hydrochloride] | 16 ± 2% | 84 ± 6% | 
CCOc1cc([C@@H]2CCCNC2)c(OC)cc1C(F)(F)F.Cl [Compound 20, (S)-3-(5-ethoxy-2-methoxy-4-(trifluoromethyl)phenyl)piperidine hydrochloride] | 44 ± 5% |  | 
COc1cc([C@H]2CCCNC2)c(OC)cc1C.Cl [Compound 23, (R)-3-(2,5-dimethoxy-4-methylphenyl)piperidine hydrochloride] | 53 ± 6% | 89 ± 4% | 
COc1cc([C@@H]2CCCNC2)c(OC)cc1C.Cl [Compound 24, (S)-3-(2,5-dimethoxy-4-methylphenyl)piperidine hydrochloride] |  | 75 ± 3% | 
COc1cc([C@H]2CCCNC2)c(OC)cc1SC(C)C [Compound 25, (R)-3-(4-(isopropylthio)-2,5-dimethoxyphenyl)piperidine] |  | 91 ± 4% | 
COc1cc([C@@H]2CCCNC2)c(OC)cc1SC(C)C [Compound 26, (S)-3-(4-(isopropylthio)-2,5-dimethoxyphenyl)piperidine] |  | 92 ± 4% | 
CCOc1cc(C(F)(F)F)c(OC)cc1[C@H]1CCCNC1.Cl [Compound 29, (R)-3-(2-ethoxy-5-methoxy-4-(trifluoromethyl)phenyl)piperidine hydrochloride] | 34 ± 1% |  | 
CCc1cc(OC)c([C@H]2CCCNC2)cc1OC.Cl [Compound 31, (R)-3-(4-ethyl-2,5-dimethoxyphenyl)piperidine hydrochloride] |  | 93 ± 5% | 
COc1cc(C(F)(F)F)ccc1[C@H]1CCCNC1 [Compound 52, (R)-3-(2-methoxy-4-(trifluoromethyl)phenyl)piperidine hydrochloride] | 38 ± 6% |  | 
CCCCc1cc(OC)c([C@H]2CCCNC2)cc1OC [Compound 56, (R)-3-(4-butyl-2,5-dimethoxyphenyl)piperidine hydrochloride] | 68 ± 6% | 93 ± 5% | 
CCCCc1cc(OC)c([C@@H]2CCCNC2)cc1OC [Compound 57, (S)-3-(4-butyl-2,5-dimethoxyphenyl)piperidine hydrochloride] |  | 82 ± 2% | 
COc1cc(C(F)(F)F)c(OC)cc1[C@@H]1CCCN(C)C1 [Compound 61, (S)-3-(2,5-dimethoxy-4-(trifluoromethyl)phenyl)-1-methylpiperidine] | 14 ± 2% |  | 
CN(C)CCc1c[nH]c2cccc(O)c12 [Psilocin, psilocin] |  |  | 4.7 nM
